This is an account of results in publication PMC6345774, “Kinetic and thermodynamic effects of phosphorylation on p53 binding to MDM2” (Scientific Reports, 2019).

For one data set, the target named is MDM2. Conditions: read-out: Kd of other p53 peptides of different lengths; cited from earlier work. From the text:
We were able to obtain much more accurate Kd values by using ITC. Since ITC is the gold-standard[37] for determining binding affinities, we refer to these Kd values in our subsequent discussion.

Data set [1] in a line: Far-UV CD of isolated peptides in aqueous solution (helicity). In kind it is physicochemical. As to conditions: 5 °C, 50 mM phosphate pH 6.8. The protocol:
Spectra were acquired on a Jasco J815 spectropolarimeter (Jasco, Japan) interfaced with a Peltier unit. The instrument was periodically calibrated with (+) 10-camphorsulphonic acid. Far-UV measurements (in aqueous or TFE solutions) were performed in 0.1-cm-pathlength quartz cells (Hellma), with a response time of 2 s, a band width of 1 nm, data were collected every 0.2 nm, and a scan velocity of 50 nm/min (or 20 nm/min). Six (or five) scans were averaged and collected between 195 and 250 nm or between 190 nm and 260 nm (for the highest concentration assayed). In all peptides, two concentrations (10 μM and 70 μM) in aqueous solutions (50 mM sodium phosphate buffer, pH 6.8 […]) were used to determine whether either the shapes or the intensities of the spectra were concentration-dependent. […] In all cases (aqueous solution or TFE titrations), the corresponding blank solutions (containing only buffer, or buffer and the corresponding amount of TFE) were subtracted from the spectra.
For the TFE titrations, a peptide concentration of 40 μM was used. The samples were prepared the day before and left overnight at 5 °C to reach equilibrium. The experiments in aqueous solution were acquired at 5 °C, in 50 mM sodium phosphate buffer, pH 6.8. Raw ellipticity was converted to molar ellipiticity, [Θ], from which the percentage of helical populations was determined. […]

Take “Glu17-Leu26: p53 peptide of different length (residues Glu17-Leu26) from ref 23”: the Kd (as a rule, the free concentration of one partner at which half of the binding sites on the other are occupied at equilibrium, for simple one-to-one binding) on MDM2 was 0.046 µM.

As to “Ser15-Asn29: p53 peptide of different length (residues Ser15-Asn29) from ref 23”, at MDM2, the Kd was 0.5 µM.

On to `CC(=O)N[C@@H](CCC(=O)O)C(=O)N[C@H](C(=O)N[C@@H](Cc1ccccc1)C(=O)N[C@@H](CO)C(=O)N[C@@H](CC(=O)O)C(=O)N[C@@H](CC(C)C)C(=O)N[C@@H](Cc1c[nH]c2ccccc12)C(=O)N[C@@H](CCCCN)C(=O)N[C@@H](CC(C)C)C(=O)N[C@@H](CC(C)C)C(=O)N1CCC[C@H]1C(=O)N[C@@H](CCC(=O)O)C(=O)N[C@@H](CC(N)=O)C(N)=O)[C@@H](C)O` [P53-WT], for which, in data set [1] (far-UV CD), the “molar ellipticity at 222 nm, [Θ]222” value is −2741 deg cm^2 dmol^−1. Further, in data set [1] (from molar ellipticity at 222 nm assuming 100% helix = −31500 deg cm^2 dmol^−1), the “% Helix in water ([Θ]222)” value stood at 8.7%.
